Assay results taken from ChEMBL document CHEMBL5316302, “Deciphering Nonbioavailable Substructures Improves the Bioavailability of Antidepressants by Serotonin Transporter” (J Med Chem, 2023).

Assay: Clearance in Beagle dog at 1 mg/kg, iv measured upto 24 hrs by LC-MS/MS analysis
Type: ADME, organism-based, Canis lupus familiaris
Settings: in vivo

CL: 347 mL/min/kg
Structure (SMILES): N#Cc1ccc2[nH]cc(CCCCN3CCN(c4ccc5oc(C(N)=O)cc5c4)CC3)c2c1 [VILAZODONE]
